Measured values as given in patent publication US5916906A, “Compositions comprising nicotinylalanine and an inhibitor of glycine conjugation or vitamin B6” (priority 1997, dated 1999).

Test: Plasma nicotinamide levels in LP-BM5 infected mice (HPLC)
Format: in vivo, C57BL/6 mice
Conditions: Month 4; NAL 400 mg/kg, ASA 20 mg/kg, AZT as in Table 4

Cc1cn([C@H]2C[C@H](N=[N+]=[N-])[C@@H](CO)O2)c(=O)[nH]c1=O [AZT, 3'azido-3'deoxythymidine, reference compound]
Ratio of plasma nicotinamide mean to placebo (PBS Control, Group 1): 2.32
